Measured values from paper PMC9062740.

Target: filamentous actin (F-actin) polymerized from rabbit muscle G-actin, P68135
Experiment: F-actin-binding assay (cosedimentation)
Settings: chain shown with the change; 2.3 μM H2 mutant, 10.5 μM F-actin; parent: est. 1.0; read off a plot

B1: CLIP-170 N-terminal fragment H2 (H2 1-481), P30622 K277A (protein)
chain: MSMLKPSGLKAPTKILKPGSTALKTPTAVVAPVEKTISSEKASSTPSSETQEEFVDDFRVGERVWVNGNKPGFIQFLGETQFAPGQWAGIVLDEPIGKNDGSVAGVRYFQCEPLKGIFTRPSKLTRKVQAEDEANGLQTTPASRATSPLCTSTASMVSSSPSTPSNIPQKPSQPAAKEPSATPPISNLTKTASESISNLSEAGSIKKGERELKIGDRVLVGGTKAGVVRFLGETDFAKGEWCGVELDEPLGKNDGAVAGTRYFQCQPKYGLFAPVHAVTKIGFPSTTPAKAKANAVRRVMATTSASLKRSPSASSLSSMSSVASSVSSRPSRTGLLTETSSRYARKISGTTALQEALKEKQQHIEQLLAERDLERAEVAKATSHVGEIEQELALARDGHDQHVLELEAKMDQLRTMVEAADREKVELLNQLEEEKRKVEDLQFRVEEESITKGDLEQKSQISEDPENTQTKLEHARIKELE
ratio to parent: 0.95

B2: CLIP-170 N-terminal fragment H2 (H2 1-481), P30622 K252E; N253D (protein)
chain: B1 chain with K252E, N253D, A277K
ratio to parent: 0.91

B4: CLIP-170 N-terminal fragment H2 (H2 1-481), P30622 K224A (protein)
chain: B1 chain with K224A, A277K
ratio to parent: 0.63

B7: CLIP-170 N-terminal fragment H2 (H2 1-481), P30622 K252A (protein)
chain: B1 chain with K252A, A277K
ratio to parent: 0.89

B8: CLIP-170 N-terminal fragment H2 (H2 1-481), P30622 K123A (protein)
chain: B1 chain with K123A, A277K
ratio to parent: 0.79

B9: CLIP-170 N-terminal fragment H2 (H2 1-481), P30622 K98E (protein)
chain: B1 chain with K98E, A277K
ratio to parent: 0.64

Other lines, results leading:

ratio to parent: 1.2
B3: CLIP-170 N-terminal fragment H2 (H2 1-481), P30622 H276A (protein)
chain: B1 chain with H276A, A277K

ratio to parent: 1
B5: CLIP-170 N-terminal fragment H2 (H2 1-481), P30622 K98E; N99D (protein)
chain: B1 chain with K98E, N99D, A277K

ratio to parent: 0.62
B6: CLIP-170 N-terminal fragment H2 (H2 1-481), P30622 N253A (protein)
chain: B1 chain with N253A, A277K

ratio to parent: 0.65
B10: CLIP-170 N-terminal fragment H2 (H2 1-481), P30622 K238A (protein)
chain: B1 chain with K238A, A277K

Positions count from the first letter of the chain named. Numbers in names are those of the source. Each block holds one binder with its values, some of them ahead of it.
